Measurements from article PMC10253456, “Investigating the Contribution of Major Drug-Metabolising Enzymes to Possum-Specific Fertility Control” (International Journal of Molecular Sciences, 2023).

Key:
CYP3A [1] = test: CYP3A catalytic activity (erythromycin N-demethylation) in mouse liver microsomes
CYP3A [2] = test: CYP3A catalytic activity (erythromycin N-demethylation) in possum liver microsomes
[3] = initial screen n=1, compounds without reported IC50 at 1 µM
[4] = initial screen n=1, compounds without reported IC50 at 5 µM

## COc1cc(/C=C/c2ccc(OC)cc2OC)cc(OC)c1 [TMS]
CYP3A [1]; [3]
  Percent control catalytic activity at estimated IC50: 126 percent control
CYP3A [1]; [4]
  Percent control catalytic activity at estimated 2-fold IC50: 140 percent control
CYP3A [2]; [3]
  Percent control catalytic activity at estimated IC50: 105 percent control
CYP3A [2]; [4]
  Percent control catalytic activity at estimated 2-fold IC50: 125 percent control
